The values that follow come from BindingDB's records for doi:10.1021/jm00065a015 (Smithkline Beecham Pharmaceuticals, 1993).

Chains of the proteins cited; added tags and fusions are not shown. Lines headed by an entry give the natural chain unless they say otherwise; changes in a name come on top.
UniProt P08909: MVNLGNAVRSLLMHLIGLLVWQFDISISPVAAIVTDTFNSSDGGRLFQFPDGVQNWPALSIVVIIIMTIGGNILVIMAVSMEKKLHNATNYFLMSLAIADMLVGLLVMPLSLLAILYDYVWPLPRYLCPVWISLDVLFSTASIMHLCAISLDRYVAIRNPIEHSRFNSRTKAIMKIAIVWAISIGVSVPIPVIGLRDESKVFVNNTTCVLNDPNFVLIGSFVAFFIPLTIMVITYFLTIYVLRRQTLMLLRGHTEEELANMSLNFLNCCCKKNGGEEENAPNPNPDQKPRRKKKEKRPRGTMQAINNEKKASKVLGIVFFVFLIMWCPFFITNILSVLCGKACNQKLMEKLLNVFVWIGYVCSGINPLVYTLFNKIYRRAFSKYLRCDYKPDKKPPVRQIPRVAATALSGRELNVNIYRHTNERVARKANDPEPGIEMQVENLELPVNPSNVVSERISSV
UniProt P14842, whole entry: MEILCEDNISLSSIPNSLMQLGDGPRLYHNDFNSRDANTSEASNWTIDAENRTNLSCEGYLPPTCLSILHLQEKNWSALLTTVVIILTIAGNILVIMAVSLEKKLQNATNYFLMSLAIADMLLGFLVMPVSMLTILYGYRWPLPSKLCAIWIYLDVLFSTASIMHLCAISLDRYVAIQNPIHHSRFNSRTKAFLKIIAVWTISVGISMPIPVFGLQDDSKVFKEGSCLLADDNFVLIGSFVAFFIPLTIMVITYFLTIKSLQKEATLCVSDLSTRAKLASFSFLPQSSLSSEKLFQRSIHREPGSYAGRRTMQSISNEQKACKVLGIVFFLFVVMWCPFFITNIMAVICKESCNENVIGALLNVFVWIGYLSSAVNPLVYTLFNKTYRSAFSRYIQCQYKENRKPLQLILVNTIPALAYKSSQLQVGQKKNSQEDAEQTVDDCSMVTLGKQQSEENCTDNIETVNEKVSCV
UniProt P30994, whole entry: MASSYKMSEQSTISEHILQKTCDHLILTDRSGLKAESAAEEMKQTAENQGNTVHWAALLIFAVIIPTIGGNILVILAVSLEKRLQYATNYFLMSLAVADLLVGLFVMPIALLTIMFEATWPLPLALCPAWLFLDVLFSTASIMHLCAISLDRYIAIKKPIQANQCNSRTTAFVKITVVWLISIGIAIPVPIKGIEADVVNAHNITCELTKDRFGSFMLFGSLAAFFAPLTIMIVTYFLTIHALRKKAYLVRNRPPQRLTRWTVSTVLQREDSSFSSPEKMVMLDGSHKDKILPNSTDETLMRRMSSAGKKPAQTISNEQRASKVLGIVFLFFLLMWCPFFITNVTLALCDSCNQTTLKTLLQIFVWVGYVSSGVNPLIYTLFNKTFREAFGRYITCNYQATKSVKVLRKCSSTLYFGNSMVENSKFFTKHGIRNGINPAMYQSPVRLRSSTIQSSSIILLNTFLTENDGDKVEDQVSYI
UniProt P08908, whole entry: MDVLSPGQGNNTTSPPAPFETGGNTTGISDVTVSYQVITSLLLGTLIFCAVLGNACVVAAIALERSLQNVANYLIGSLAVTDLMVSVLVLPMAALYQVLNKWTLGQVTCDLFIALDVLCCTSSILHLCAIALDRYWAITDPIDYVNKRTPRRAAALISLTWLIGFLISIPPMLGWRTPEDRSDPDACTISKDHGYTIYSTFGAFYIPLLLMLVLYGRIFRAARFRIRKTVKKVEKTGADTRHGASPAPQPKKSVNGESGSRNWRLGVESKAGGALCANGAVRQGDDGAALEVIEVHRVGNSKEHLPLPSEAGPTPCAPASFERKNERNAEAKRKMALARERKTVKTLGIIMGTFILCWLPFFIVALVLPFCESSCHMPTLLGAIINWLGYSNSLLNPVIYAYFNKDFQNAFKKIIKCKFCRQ

Experiment [1] has as its target Serotonin 2 (5-HT2) receptor (Rattus norvegicus, UniProt P08909+P14842+P30994).
Experiment [2] has as its target 5-hydroxytryptamine receptor 1A (Homo sapiens, UniProt P08908).

`CNS(=O)(=O)Cc1ccc2[nH]cc(CCN(C)C)c2c1` [Sumax]: the Kd is over 100 µM in experiment [1] and 3.16 µM in experiment [2].
